# In patent US11786548B2, “Trace element compositions, methods of making and use” (priority 2020, dated 2023):
# Assay: Stability study of injectable trace element composition in parenteral nutrition admixtures (assay test for zinc, copper, selenium, manganese)
# Assay type: physicochemical
# Text: In order to establish stability data for parenteral nutrition admixed with the injectable compositions of trace elements, we conducted a stability study of injectable trace element composition (trace elements injectable composition, USP) in parenteral nutrition admixtures (assay test); a pH study of parenteral nutrition (PN) admixtures upon addition of injectable trace element composition (trace elements injectable composition, USP); a compatibility study of injectable trace element composition (trace elements injectable composition, USP) in parenteral nutrition admixtures; and a reduced inoculation antimicrobial effectiveness study for injectable trace element composition (trace elements injectable composition, USP) in parenteral nutrition admixtures. […]
structure (smiles),measurement,value
"O.O.O.O.O.O=S(=O)([O-])[O-].[Cu+2] [Copper, cupric sulfate pentahydrate]",Assay Day 0,101.8%
same,Assay Day 7,101.5%
same,Assay Day 10,101.0%
